Data published in US10532109B2, “Peptide-DNA chimeras for treatment of HER overexpressing cancers” (ARIZONA BOARD OF REGENTS ON BEHALF OF ARIZONA STATE …, priority 2016, dated 2020).

Assays:
[1] = system: BT474 human breast cancer cells (overexpression of HER2); conditions: literature report; 72 hour exposure; cited from earlier work
[2] = system: BT474 human breast cancer cells (overexpression of HER2); assay: Cancer cell inhibition assay (MTT), BT474; type: cell-based
Description: BT474 human breast cancer cells (ATCC® HTB-20™, overexpression of HER2) and MDA-MB-231 human breast cancer cells (ATCC® HTB-26™, low expression of HER2 receptor) were cultured at 37° C. in a 5% CO2 atmosphere and grown in Gibco® RPMI 1640 medium supplemented with 10% fetal bovine serum (FBS) and 1% antibiotic-antimycotic mix antibiotic supplement before use.
Exponentially growing BT474 cells and MDA-MB-231 cells were harvested and plated in 96-well plates at a concentration of 2×10^4 cells/well for BT474 cells and 5×10^4 cells/well for MDA-MB231 cells. After incubation at 37° C. for 24 hours, the cells were treated with trastuzumab, DNA tetrahedron-affibody III and DNA tetrahedron-affibody-doxorubicin nanoparticle IV (1:50 III-doxorubicin) at different concentrations for an additional 48, 72, or 96 hours. Then 20 μL of MTT (5 mg/mL) was added to each well and the plates were incubated at 37° C. for 4 hours. The supernatant was discarded, and 100 μL of DMSO was added to each well. The absorbance was recorded at 490 nm after 15 minutes. Inhibition of cell growth was obtained by the following formula: […]
Data are reported as the mean of three independent experiments, each run in quintuplicate.

Substance: trastuzumab
- concentration required for 30% cell growth inhibition (IC30) [1]: 230 nM
- dose dependence of inhibition of BT474 cells [2]: not dose-dependent
- inhibitory activity toward HER2 overexpressing breast cancer cells (in words) ([2]; III compared with trastuzumab): very low activity
- highest inhibition of BT474 cells ([2]; over the same concentration range (up to 100 nM), 72 or 96 hours): approximately 7%
